Measured values as given in patent publication US5939095A, “Transdermal therapeutic system and a process for the combined transdermal application of physostigmine and scopolamine for the prophylaxis and pretreatment of a poisoning caused by highly toxic organophosphorus neurotoxins in particular soman” (dated 1999).

What was measured:
[1] = In-vitro-liberation of scopolamine and physostigmine into physiological saline (rotating cylinder); details: from the TTS of the Example, physiological saline solution
[2] = Clinical tolerance study of physostigmine skin patches with Scopoderm TTS; details: voluntary test persons; double-blind against placebo

Row | SMILES | Accumulated release after 2 h [1] [mg/cm^2] | Accumulated release after 4 h [1] [mg/cm^2] | Accumulated release after 8 h [1] [mg/cm^2] | Accumulated release after 24 h [1] [mg/cm^2] | suppressing the undesired effects caused by physostigmine, in particular nausea and vomiting [2]
1 | CNC(=O)Oc1ccc2c(c1)[C@]1(C)CCN(C)[C@@H]1N2C | 0.5 | 0.69 | 1.02 | 1.71 | –
2 | CN1[C@@H]2C[C@@H](OC(=O)[C@H](CO)c3ccccc3)C[C@H]1[C@@H]1O[C@@H]12 | 0.1 | 0.14 | 0.20 | 0.33 | effective
